Test results from patent US7060673B2, “Fusion peptide of human parathyroid hormone derived peptide and tat peptide, preparation thereof, and skin slimming cosmetic composition comprising the same” (LG Household and Health Care Ltd., priority 2001, dated 2006).

Columns and labels:
[1] = nude mouse back skin 1.7 cm^2, 24 hours, Franz cell, HPLC and LC mass
[2] = test system: Blab/c mice; conditions: 0.5% and 1.0% solutions in ethanol, 50 μl on both ears for 3 days; [3H]-methylthymidine, dpm
[3] = test system: Guinea pigs; conditions: O/W emulsion, closed patch 48 hours
[4] = test system: V79-4 cells

KKKKKKKKKGKH
transdermal absorption [1]: superior transdermal absorption
possibility of allergy induction [2]: lower possibility of allergy induction compared to a control
Irritation Degree ([3]; concentration 0.01 %): Minute irritation
Irritation Index (PII) ([3]; concentration 0.01 %): 0.62
Irritation Degree ([3]; concentration 0.1 %): Minute irritation
Irritation Index (PII) ([3]; concentration 0.1 %): 0.65
Irritation Degree ([3]; concentration 0.5 %): Minute irritation
Irritation Index (PII) ([3]; concentration 0.5 %): 0.71
cytotoxicity (MTT) ([4]; concentration of 0.01 or less): little toxicity
cytotoxicity (MTT) ([4]; concentration of 0.1 (%, w.v) or more): very weak toxicity

Where two headings read alike, the source gives them in different places.
